# This is a selection; strong and weak results do not stand in their true shares. Inconclusive results are not listed. A call without a number means that no potency is given here. Activity calls are given as the source filed them. The call rests on the fitted dose curve; in most records, active means well fitted cell-killing curve with a large enough effect in the repeat runs; inconclusive means weak or mixed curves, or effect the other way; inactive means no such curve, though single readings can be large or run the other way.
# Assays:
# [1] = qHTS assay to identify small molecule agonists of the estrogen receptor alpha (ER-alpha) signaling pathway in the presence of an antagonist - cell viability counter screen (AID 1259386); further: nearly all actives have a fitted effect of over 30% in size
# In short: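 Compounds tested at 15 concentrations for 22 h at 37C alongside 10.0nM (final) ICI-182,780 antagonist, in VM7Luc4E2 cells grown in phenol red-free, charcoal-stripped medium. Viability read by CellTiter-Fluor fluorescence after 1 h reagent incubation.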
# [2] = qHTS assay to identify small molecule antagonists of the progesterone receptor (PR) signaling pathway - cell viability counter screen (AID 1346798); further: nearly all actives have a fitted effect of over 50% in size
# In short: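 Viability was determined by ATP-based luminescence (CellTiter-Glo) in PR-UAS-bla HEK293T cells cultured in 2% charcoal-stripped serum and incubated 16 hr with compounds under R5020 stimulation.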
# Further: series mostly up to about 92 µM.
structure (smiles),measurement,setting,value
O=[N+]([O-])c1ccc(S(=O)(=O)O)c([N+](=O)[O-])c1,Potency,[1],inactive
same,Potency,[2],inactive

# From PubChem BioAssay (Tox21)
